Results taken from patent US10030016B2 (Sunesis Pharmaceuticals, Inc., priority 2009, dated 2018).

The chains behind the UniProt entries cited, without tags or fusion partners. Residues count along the entry.
UniProt O15530, 51-359 limits assumed: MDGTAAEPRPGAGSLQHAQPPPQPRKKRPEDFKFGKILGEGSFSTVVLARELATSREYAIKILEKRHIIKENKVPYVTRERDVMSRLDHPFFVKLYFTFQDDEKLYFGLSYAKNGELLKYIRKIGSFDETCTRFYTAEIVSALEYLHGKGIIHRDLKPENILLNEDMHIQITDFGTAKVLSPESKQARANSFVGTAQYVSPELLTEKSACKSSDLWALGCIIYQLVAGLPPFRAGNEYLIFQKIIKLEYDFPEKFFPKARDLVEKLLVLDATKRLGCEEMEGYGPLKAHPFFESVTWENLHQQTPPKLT

What was measured:
PDK1 = PDK1 (Homo sapiens (Human), UniProt O15530); experiment: PDK1 kinase assay (coupled PDK1/AKT/FAM-crosstide assay, IMAP fluorescence polarization); type: biochemical
[1] = test system: phospho-akt (Thr308) in PC-3 cells; experiment: Inhibition of phospho-akt (Thr308) in PC-3 cells, MSD phospho-akt 308 ELISA kit; details: 2 hours, no serum
[2] = inhibition of phospo-PDK1 in vitro
[3] = inhibition of P308 Akt in PC-3 cells, MSD

Row | SMILES | IC50 (PDK1; [2]) | EC50 [1, 3] | other results
1 | CN(C)c1ncnc2ccc(-c3ccc(CNc4ncccc4C(=O)NCc4ccc(F)c(F)c4)s3)cc12 | < 0.1 µM | 1 to 10 µM | 
2 | Cc1nc(-c2ccc(CNc3ncc(C#N)nc3C(=O)N[C@@H](C)c3ccc(F)c(F)c3)cc2)c2c(N)nccn12 |  |  | IC50 (PDK1; inhibition of PDK1 in vitro): < 0.1 µM; EC50 ([1]; inhibition of P308 Akt in PC-3 cells using MSD): 1 to 10 µM
3 | CCNc1ncnc2ccc(-c3ccc(CNc4ncccc4C(=O)NCc4ccc(F)c(F)c4)s3)cc12 | < 0.1 µM | < 1 µM | 
4 | Nc1ncnc2ccc(-c3ccc(CNc4ncc(C(=O)O)cc4C(=O)NCc4ccc(F)c(F)c4)s3)cc12 | < 0.1 µM | > 10 µM | 
5 | CCCCCNc1ncnc2ccc(-c3ccc(CNc4ncccc4C(=O)NCc4ccc(F)c(F)c4)s3)cc12 | 1 to 5 µM | > 10 µM | 
6 | C[C@H](NC(=O)c1cc(C#N)cnc1NCc1ccc(-c2cnc(N)c(CN(C)C)n2)cc1)c1ccc(F)cc1 |  |  | IC50 (PDK1; tested form: TFA): 0.1 to 1 µM; EC50 ([1]; inhibition of P308 Akt in PC-3 cells using MSD, tested form: TFA): > 10 µM
7 | CCN(CC)c1ncnc2ccc(-c3ccc(CNc4ncccc4C(=O)NCc4ccc(F)c(F)c4)s3)cc12 | < 0.1 µM | > 10 µM | 

The next lines start with results.

Row | IC50 (PDK1; [2]) | EC50 [1, 3] | SMILES | other results
8 | 0.1 to 1 µM | > 10 µM | O=C(NCc1ccc(F)c(F)c1)c1cccnc1NCc1ccc(-c2ccc3ncnc(N4CCCC4)c3c2)s1 | 
9 | < 0.1 µM | > 10 µM | O=C(NCc1ccc(F)c(F)c1)c1cccnc1NCc1ccc(-c2ccc3ncncc3c2)s1 | 
10 | < 0.1 µM | 1 to 10 µM | CCCNc1ncnc2ccc(-c3ccc(CNc4ncccc4C(=O)NCc4ccc(F)c(F)c4)s3)cc12 | 
11 | < 0.1 µM | 1 to 10 µM | CONc1ncnc2ccc(-c3ccc(CNc4ncccc4C(=O)NCc4ccc(F)c(F)c4)s3)cc12 | 
